Measurements from publication PMC10899660, “Global fungal-host interactome mapping identifies host targets of candidalysin” (Nature Communications, 2024).

Key:
CCNH = assay: Bimolecular fluorescence complementation (BiFC) assay in HEK-293T cells; type: binding, human; details: green fluorescence
Text: High-fidelity DNA polymerase (gene-optimal, 60070E) and the primers were used to amplify the target DNA of CCNH and candidalysin. The target DNA fragments were recovered and recombined with linearized pBiFC-VC155 (Vector), double cleaved by EcoRI (Thermo Scientific™, FD0583) and KpnI (Thermo Scientific™, FD0504), and pBiFC-VN173 (Vector), double cleaved by HindIII (Thermo Scientific™, FD0584) and XbaI (Thermo Scientific™, FD0503), respectively. Constructed pBiFC-VC155-CCNH and pBiFC-VN173-candidalysin were transformed into E. coli DH5α receptor cells (TIANGEN, CB101). The plasmids pBiFC-VC155-CCNH and pBiFC-VN173-candidalysin were co-transfected into 3 × 10^5 HEK293T cells by Lipofectamine™ 3000 (Thermo Scientific™, L3000001). The pBiFC-VC155 (Vector) and pBiFC-VN173 (Vector) plasmid were co-transfected into the control group. Transfected cells were incubated at 37 °C for 12 h and then switched to 4 °C for 2 h. The cells were imaged under the fluorescence microscope.

A549 epithelial cells = assay: Cell damage and cytokine secretion, A549 cells; type: cell-based
Method: Cells were deposited into 96-well plates and incubated at 37 °C with 5% CO2. Prior to the cell damage assay, cells were starved in serum-free medium overnight. Cytotoxicity LDH Assay Kit-WST (Dojindo, #CK12) was applied to determine the lactate dehydrogenase (LDH) activity released from cells that were damaged by candidalysin for 2 h or 4 h according to the manufacturer’s instructions.

FaDu cells [1] = assay: Cytokine secretion (IL-6, G-CSF), FaDu cells; type: cell-based; details: 10 µM, 12 h
Method: To examine the damage induced by candidalysin, we treated both FaDu and A549 epithelial cells with synthetic candidalysin peptide.
Supplementary Fig. 4. Candidalysin induces cell damage and production of
cytokines, related to Fig. 4.
(a) LDH release after incubation of FaDu cells with Ece1 peptides.
(b) LDH release of FaDu cells after treatment with serial dilution concentrations of
(c) IL-6 expression after incubation with 10 µM Ece1-III within 12h.
(d) G-CSF expression after incubation with 10 µM Ece1-III within 12h.
Data are presented as mean ± SEM. ns, not significant, *P < 0.05, **P < 0.01, ***P <
0.001, ****P < 0.0001 as determined by one-way ANOVA test with Tukey correction
(a, b), unpaired two-tailed Student’s t-test (c, d).
(1 picture or pasted object on this page, not shown here)

FaDu cells [2] = assay: Immunofluorescence of γ-H2AX formation and CCNH expression, FaDu cells; type: cell-based; details: 10 μM
Method: Cells were cultured on glass coverslips (#WHB-24-CS) in a 24-well plate. After candidalysin treatment, cells were fixed with 4% paraformaldehyde for 10 min and washed with prewarmed PBS for 3 times. Then cells were treated with 0.2% Triton X-100 for 5 min and blocked with PBS containing 10% FBS and 1% BSA for 1 h at 37 °C before incubation with primary antibody at 4 °C overnight. Then the coverslips with treated cells were immersed in HBSS containing 2 μM FM1-43 on ice for 1 min to stain the plasma membrane. After staining with antifade mounting medium with DAPI (Beyotime, #P0131), the cells were imaged under the confocal microscope. The antibodies used in this study are as follows: CCNH antibody (CST, Rabbit Source, Cat#2927, 1:500 dilution), Anti-gamma H2A.X (phospho S139) antibody (Abcam, Mouse Source, Cat#ab303656, 1:500 dilution), Goat Anti-Mouse IgG H&L (Alexa Fluor® 647) (Abcam, Goat Source, Cat#ab150115,1:500 dilution), Goat Anti-Rabbit IgG H&L (Alexa Fluor® 488) (Abcam, Goat Source, Cat#ab150077, 1:500 dilution).

A549 cells = assay: Western blot of CCNH and γ-H2AX, A549 and CCNH-KD A549 cells; type: cell-based; details: 4 h
Method: (§1) Cells were lysed with cell lysis buffer (Beyotime, #P0013) on ice for 30 min. The supernatant of cell lysate was then collected in a table-top refrigerated centrifuge at 4 °C and 14,000 × g for 10 min. Protein concentration was determined by Pierce™ BCA Protein Assay Kit (Thermo Scientific™, #23227). Antibodies against the following proteins were used for Western blotting analysis: CCNH antibody (CST,Rabbit Source, Cat#2927, 1:1000 dilution), gama-H2AX antibody (CST, Rabbit Source, Cat#97185, 1:1000 dilution), GAPDH (D16H11) XP® Rabbit mAb (CST, Rabbit Source, Cat#5174 S, 1:1000 dilution), Anti-CDK2 (phospho T160) + CDK1 (phospho T161) antibody (Abcam, Rabbit Source, Cat#EPR17621, 1:1000 dilution), Anti-rabbit IgG, HRP-linked Antibody (CST, Goat Source, Cat#7074, 1:5000 dilution), […] Tag (D6W5B) Rabbit mAb (CST, Rabbit Source, Cat#14793, 1:1000 dilution), GFP (4B10) Mouse mAb (CST, Mouse Source, Cat #2955, 1:1000 dilution), Anti-mouse IgG,HRP-linked antibody (CST, Goat Source, Cat#7076, 1:5000 dilution). Membranes were treated with SuperSignal™ West Pico PLUS Chemiluminescent Substrate (Thermo Scientific™, #34577) prior to visualization in the Chemiluminescence Imaging Analysis System (BG-gdsAUTO720, Baygene). GAPDH was used as the loading control.

FaDu cells [3] = assay: Co-culture of FaDu cells with C. albicans strains, western blot of CCNH, γ-H2AX and phosphorylated CDK1/2; type: cell-based; details: FaDu co-cultured with C. albicans strains
Method: as §1, with “Membranes were treated with SuperSignal™ West Pico PLUS Chemiluminescent Substrate (Thermo Scientific™, #34577) prior to visualization in the Chemiluminescence Imaging Analysis System (BG-gdsAUTO720, Baygene). GAPDH was used as the loading control.” left out
The wild type (SC5314), ece1Δ/Δ, ece1Δ/Δ+ECE1 and ece1Δ/Δ+ECE1^Δ184-279 C. albicans cells were individually inoculated into YPD broth and grown overnight at 30 °C and were harvested and washed three times with PBS, then counted using a hemocytometer. […]

CC[C@H](C)[C@H](NC(=O)CNC(=O)[C@H](CCSC)NC(=O)[C@@H](NC(=O)[C@@H](NC(=O)CNC(=O)[C@@H](NC(=O)[C@@H](NC(=O)[C@@H](N)CO)[C@@H](C)CC)[C@@H](C)CC)[C@@H](C)CC)[C@@H](C)CC)C(=O)N[C@@H](CC(C)C)C(=O)NCC(=O)N[C@@H](CC(N)=O)C(=O)N[C@H](C(=O)N1CCC[C@H]1C(=O)N[C@@H](CCC(N)=O)C(=O)N[C@H](C(=O)N[C@H](C(=O)N[C@@H](CCC(N)=O)C(=O)N[C@H](C(=O)N[C@H](C(=O)N[C@@H](CCSC)C(=O)N[C@@H](CO)C(=O)N[C@H](C(=O)N[C@H](C(=O)N[C@@H](CCCCN)C(=O)N[C@@H](C)C(=O)N[C@@H](Cc1ccccc1)C(=O)N[C@@H](CCCCN)C(=O)NCC(=O)N[C@@H](CC(N)=O)C(=O)N[C@@H](CCCCN)C(=O)O)C(C)C)[C@@H](C)CC)[C@@H](C)CC)[C@@H](C)CC)[C@@H](C)CC)C(C)C)[C@@H](C)CC [Ece1-III]
intracellular interaction with CCNH by BiFC (CCNH): formation of green fluorescence signals strongly reflects the intracellular interaction | cell damage and cytokine secretion (A549 epithelial cells): induced both cell damage and cytokine secretion | G-CSF secretion (FaDu cells [1]): induced the secretion | IL-6 secretion (FaDu cells [1]): induced the secretion | γ-H2AX accumulation (FaDu cells [2]): triggered the accumulation of γ-H2AX | CCNH and γ-H2AX expression (A549 cells; A549, 10 μM): prominently elevated CCNH and γ-H2AX expression | γ-H2AX expression in CCNH knocked down cells (A549 cells; CCNH-KD A549, 10 μM candidalysin): maintained at low levels | phosphorylation of CDK1/2 (substrate of CAK complex) (FaDu cells [3]): increasing level of phosphorylated CDK1/2
